Hits are enriched below; roughly 0.91% of the tested compounds scored in any of these assays.
PGC1a acetyl inh: modulators of PGC1a acetylation | U2OS PGC1a acetylation, AlphaScreen anti-acetyl-lysine; with virally co-expressed GCN5 acetyltransferase | inhibition, % at 15.6 µM | 0.17% of 350,000 active;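 active = every replicate shows inhibition of at least 40%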;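 note: 0% = neutral control wells and 100% = positive control wells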
Statin myotox sup: suppressors of simvastatin-induced myotoxicity in C2C12 myotubes; AID 602340; 0.78% of 330,000 active; ATP luminescence, 48 h; scaled: DMSO 0, geranylgeraniol control 100; rescue of ATP level, % at 7.49 µM;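 active = mean ATP rescue above about 67%, or every replicate alone reaching that limit, limit read from the data, passing the limit was not always enough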;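 note: myotubes were challenged with 10 µM simvastatin during compound exposure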
iPSC survival up: enhancers of human iPSC single-cell survival. AID 602274. survival enhancement, % at 20 µM. 0.044% of 360,000 active. hiPSC single-cell survival, ATPlite luminescence; 100% = ROCK inhibitor wells, 0% = DMSO; in the data active = survival enhancement above about 18%;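 note: cells exposed to compounds for 16 hours before the ATP read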
UUG fidelity: yeast start codon fidelity modulation | S. cerevisiae UUG-firefly luciferase reporter, luminescence/redox ratio | activity score, % at 18.7 µM | 0.13% of 350,000 active | AID 602363;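 active means replicate mean at a twofold rise or more, about +100% in these data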;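 further: firefly luciferase made from a UUG start codon reports start codon fidelity; reporter light over untreated wells divided by growth signal over untreated wells; some hits fall short of that in this replicate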
FN deposition inh: fibronectin deposition inhibition; AH1F fibroblasts, Alexa488-fibronectin deposition fluorescence, overnight; 0.086% of 350,000 active; inhibition, % at 12.6 µM;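 active = mean inhibition across replicates of 30% or more, regardless of how many single replicates reach that level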;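 note: positive control wells lacked labelled fibronectin entirely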
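test system = AH1F fibroblasts assembling fluorescent fibronectin matrix | quantity = 10000 AH1F cells per well | buffer or medium = DMEM plus 2% serum, read in PBS | doses = single dose, pinned | incubation = 1 h cell attachment, overnight exposure to compound and label | detection = fluorescence at 485 nm excitation, 525 nm emission | read-out basis = inhibition from reduced deposited-fibronectin fluorescence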
Starred values were filed as active, the others as inactive; x = no result given.

1	Cc1nc(-c2cccc(S(=O)(=O)N3CC(C)OC(C)C3)c2)cs1 (stereo unspecified)
2	Cc1nc(-c2cccc(S(=O)(=O)N3CC(C)CC(C)C3)c2)cs1 (stereo unspecified)
3	c1ccc(-n2cnnc2SCc2cn3cccnc3n2)cc1
4	Clc1ccc2nc(CSc3nncn3-c3ccccc3)cn2c1
5	COc1ccc(CNC(=O)CN(C(=O)c2csnn2)c2cccc3c2CCCC3)cc1
6	COc1ccc(CNC(=O)CN(C(=O)c2csnn2)c2ccccc2F)cc1
7	CN(C)CC#Cc1ccc([C@H]2[C@@H](CO)N3CCCCN(C(=O)C4CCCC4)C[C@H]23)cc1
8	CCOc1ccc(C(=O)Oc2cc(C)[nH]c(=O)c2[N+](=O)[O-])cc1
Screen / compound no.	1	2	3	4	5	6	7	8
PGC1a acetyl inh	-6	-42	4	5	1	2	-9	-1
FN deposition inh	x	x	x	-1	3	5	x	-11
iPSC survival up	2	-2	8	-2	0	-1	x	-2
UUG fidelity	-14	x	-20	-15	-7	-14	7	-10
Statin myotox sup	115*	x	86*	2	73*	36	x	127*

As entered above.
CN(C)CC#Cc1ccc([C@H]2[C@@H](CO)N3CCCCN(C(=O)C4CCCC4)C[C@H]23)cc1 | UUG fidelity: 7
CCOc1ccc(C(=O)Oc2cc(C)[nH]c(=O)c2[N+](=O)[O-])cc1 | FN deposition inh: -11

The results go on.
9	CCCCOc1ccc(C(=O)Oc2cc(C)[nH]c(=O)c2[N+](=O)[O-])cc1
10	CO[C@H]1CN(C)C(=O)c2cc(NC(=O)NC3CCCCC3)ccc2OC[C@H](C)N(CC2CCOCC2)C[C@@H]1C
11	Cc1c(/C(O)=C2\C(=O)C(=O)N(CCCN(C)C)C2c2ccccc2)cnn1-c1ccccc1 (stereo unspecified)
12	Cc1ccc(S(=O)(=O)Nc2ccc3c(c2)C(=O)N([C@H](C)CO)C[C@@H](C)[C@H](CN(C)S(=O)(=O)c2cn(C)cn2)O3)cc1
13	O=C(C[C@H]1C[C@H]2c3cc(NC(=O)C4CCC4)ccc3O[C@H]2[C@H](CO)O1)NCc1cccc(F)c1
14	Cc1cccc2cc3c(nc12)SC(=NCC1CCCO1)N(Cc1ccco1)C3 (stereo unspecified)
15	COCCN=C1Sc2nc3c(C)cccc3cc2CN1Cc1ccco1
16	N#Cc1cccc(-c2ccc([C@@H]3[C@@H]4CN(S(=O)(=O)c5ccc(-c6ccccc6)cc5)C[C@H]3N4)cc2)c1
Screen / compound no.	9	10	11	12	13	14	15	16
PGC1a acetyl inh	12	-1	82*	-3	-2	4	4	93*
FN deposition inh	1	2	13	x	x	x	-3	9
iPSC survival up	0	x	2	x	x	6	-3	x
UUG fidelity	-13	-10	x	-4	x	-24	-24	x
Statin myotox sup	1	2	-9	-12	0	x	114*	x

17	O=C(CN1CCOCC1)N1CCN(c2nnc(-c3ccccc3)c3ccccc23)CC1
18	CN(C)C(=O)C[C@@H]1C=C[C@@H](NC(=O)c2ccc(F)cc2)[C@@H](CO)O1
19	Cc1ccc(C(=O)OCc2cc(=O)n3ccsc3n2)s1
20	Cc1noc(C)c1NC(=O)N(C)C[C@H]1Oc2c(NC(=O)NC(C)C)cccc2C(=O)N([C@@H](C)CO)C[C@H]1C
21	CCCNC(=O)c1ccc(N2CCC3(CC2)CC(c2cccc(Br)c2)=NO3)c(NC(=O)c2cccc(OC)c2)c1
22	Cc1cccnc1-n1c(CCN2C(=O)c3ccccc3C2=O)nc2ccccc2c1=O
23	C[C@H](CO)N1C[C@H](C)[C@H](CN(C)C(=O)Cc2ccccc2)OCCCC[C@H](C)Oc2ccc(NC(=O)Nc3ccc(C(F)(F)F)cc3)cc2C1=O
24	C[C@@H]1CCCCO[C@@H](CN(C)C(=O)Cc2ccccc2)[C@@H](C)CN([C@@H](C)CO)C(=O)c2cc(NC(=O)Nc3ccc(C(F)(F)F)cc3)ccc2O1
Screen / compound no.	17	18	19	20	21	22	23	24
PGC1a acetyl inh	0	-5	0	-6	-7	7	x	x
FN deposition inh	x	8	-4	x	4	x	x	-1
iPSC survival up	3	x	18*	x	-2	-5	x	x
UUG fidelity	-26	x	-6	-10	-10	-12	-16	-10
Statin myotox sup	115*	6	5	x	142*	72*	97*	-94

25	C[C@@H]1CCCCO[C@@H](CN(C)C(=O)Nc2ccc(C(F)(F)F)cc2)[C@H](C)CN([C@@H](C)CO)C(=O)c2cc(NC(=O)c3ccccc3)ccc2O1
26	C[C@H](CO)N1C[C@H](C)[C@H](CN(C)C(=O)Nc2ccc(C(F)(F)F)cc2)OCCCC[C@H](C)Oc2ccc(NC(=O)c3ccccc3)cc2C1=O
27	C[C@H]1CCCCO[C@H](CN(C)C(=O)Nc2ccc(C(F)(F)F)cc2)[C@@H](C)CN([C@@H](C)CO)C(=O)c2cc(NC(=O)c3ccccc3)ccc2O1
28	C[C@@H]1CCCCO[C@@H](CN(C)C(=O)CCCN(C)C)[C@@H](C)CN([C@H](C)CO)C(=O)c2cc(NC(=O)C3CCCCC3)ccc2O1
29	O=C(CSCc1ccc(Cl)cc1)N/N=C/c1ccccc1
30	Cc1noc(C)c1NC(=O)Nc1cccc2c1O[C@H](CN(C)C(=O)Nc1ccc(F)cc1)[C@H](C)CN([C@@H](C)CO)C2=O
31	N#Cc1cccc(C#N)c1NCC1CCCO1 (stereo unspecified)
32	CO[C@H]1CN(C)C(=O)c2cc(NS(=O)(=O)c3ccc(F)cc3)ccc2OC[C@@H](C)NC[C@@H]1C
Screen / compound no.	25	26	27	28	29	30	31	32
PGC1a acetyl inh	x	x	x	x	-10	-8	43*	-3
FN deposition inh	x	x	2	x	-8	x	-3	3
iPSC survival up	x	x	x	x	-3	x	-1	x
UUG fidelity	-20	-16	-11	-5	-11	10	-15	8
Statin myotox sup	76*	112*	-33	x	114*	x	2	11

33	CCOC(=O)c1nn(-c2cccc(Cl)c2)c(C)c1C(C)=O
34	CCOC(=O)c1nn(-c2cccc(OC)c2)c(-c2ccccc2)c1C(=O)c1ccccc1
35	CC(C)C(=O)Nc1ccc2c(c1)C(=O)N(C)[C@H]1CC[C@@H](CC(=O)N[C@H](C)c3ccccc3)O[C@H]1CO2
36	O=C(NC1CCCCC1)N(Cc1nc2ccccc2c(=O)[nH]1)C1CCCCC1
37	Cc1noc(C)c1NC(=O)Nc1ccc2c(c1)C(=O)N([C@@H](C)CO)C[C@H](C)[C@@H](CN(C)Cc1ccc(C(F)(F)F)cc1)OCCCC[C@@H](C)O2
38	COc1ccc(CC(=O)Nc2ccc(-c3cn4ccccc4n3)cc2)cc1
39	COc1ccc(CC(=O)Nc2cccc(-c3cn4ccccc4n3)c2)cc1
40	S=C1Cc2ccccc2N1
Screen / compound no.	33	34	35	36	37	38	39	40
PGC1a acetyl inh	3	x	-10	-8	-15	-5	x	-7
FN deposition inh	11	x	x	x	x	x	-2	3
iPSC survival up	-1	4	x	28*	x	0	4	11
UUG fidelity	2	4	5	-1	13	-15	x	-24
Statin myotox sup	123*	10	-2	13	x	111*	x	74*

41	CC(=O)N(Cc1ccc(F)cc1)Cc1nc2ccccc2c(=O)[nH]1
42	CS(=O)(=O)N(Cc1ccc(F)cc1)Cc1nc2ccccc2c(=O)[nH]1
43	Cc1cc(NC(=O)c2n[nH]c(=O)c3ccccc23)ccc1Br
44	CC(C)c1ccc(NC(=O)c2n[nH]c(=O)c3ccccc23)cc1
45	CCOC(=O)/C(C#N)=C1/C(=O)N(Cc2ccccc2)c2ccccc21
46	CCOC(=O)C(C#N)=C1CCN(Cc2ccccc2)CC1
47	C[C@@H]1CN([C@H](C)CO)S(=O)(=O)c2ccc(-c3ccccc3F)cc2O[C@@H]1CN(C)Cc1cncnc1
Screen / compound no.	41	42	43	44	45	46	47
PGC1a acetyl inh	-8	-6	x	108*	73*	-13	0
FN deposition inh	-5	x	-9	-3	-7	-2	x
iPSC survival up	5	0	x	-2	-5	0	x
UUG fidelity	-4	-11	x	x	x	-13	76
Statin myotox sup	-2	99*	x	-13	-1	-1	-54

Given as labelled records: 2 of the compounds above
44. CC(C)c1ccc(NC(=O)c2n[nH]c(=O)c3ccccc23)cc1
  PGC1a acetyl inh: 108*
  FN deposition inh: -3
  iPSC survival up: -2
  UUG fidelity: x
  Statin myotox sup: -13
46. CCOC(=O)C(C#N)=C1CCN(Cc2ccccc2)CC1
  PGC1a acetyl inh: -13
  FN deposition inh: -2
  iPSC survival up: 0
  UUG fidelity: -13
  Statin myotox sup: -1

Compound activity (PubChem)
